# Measured affinities in a library of Ab-14 heavy chain variants

Values reported by Engelhart et al. 2022, doi:10.1038/s41597-022-01779-4 (FLAb copy).

All variants were tested on one target, the spike HR2 peptide PDVDLGDISGINAS (SARS-CoV-2).

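The parent was found by panning a naive human phage display library on the peptide. The library (AAYL49) carries one to three amino acid substitutions per variant, with no insertions or deletions. The scFvs were displayed on barcoded MATa yeast, the peptide on MATalpha yeast. The frequency of each diploid, read from paired DNA barcodes, reflects how well the two displayed proteins bind. Read counts were normalised to the haploid input and turned into Kd by a linear fit to BCL2-family pairs of known affinity, for each replicate. The assay was run in three technical replicates.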

Parent scFv Ab-14: VH joined to VL by the linker GGGGSGGGGSGGGGS. Changes lie in the heavy chain CDRs alone.
VH: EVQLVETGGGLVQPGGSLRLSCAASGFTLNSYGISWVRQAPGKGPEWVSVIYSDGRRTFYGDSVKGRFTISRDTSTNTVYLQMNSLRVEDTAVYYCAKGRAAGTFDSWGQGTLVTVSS
VL: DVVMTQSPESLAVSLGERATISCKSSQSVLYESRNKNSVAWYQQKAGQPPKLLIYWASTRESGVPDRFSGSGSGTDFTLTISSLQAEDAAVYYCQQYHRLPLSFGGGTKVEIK

Positions count from residue 1 of the parent VH; I34S puts S in place of I. The read-out is the apparent dissociation constant on a log10 scale (nM): the lower, the stronger. Replicates are averaged; those with no signal do not enter the mean. "nd" marks a missing value. The strain was present, yet no cells mated with the target were sequenced in that replicate, which points to weak or no binding. In this assay the parent's reference entry averaged 0.65; its copy inside this library read 4.11 (one replicate of three). As a blank, each scFv also met three strains without target: over library AAYL49, 15% of these pairings were detected, typically at 4.06 and seldom below 2.83. The control count says in how many pairings with the empty strains this scFv gave a signal, with their mean in brackets.

changes | replicates, log10 nM | log10 Kd (nM), mean | empty controls
I34S+V64Q+K65R | nd nd 5.20 | 5.20 | 1/9 (4.45)
S35W+D62M+S63A | nd nd nd | nd | 1/9 (3.32)
I34V+G99F+D106T | nd nd nd | nd | 2/9 (3.96)
I51A+R100W+S107I | nd nd nd | nd | 0/9
G26N+R56Q+A102F | 3.74 nd nd | 3.74 | 3/9 (4.06)
S35F+Y60W | nd nd nd | nd | 0/9
N30L+F59Q+G99H | nd nd nd | nd | 0/9
S31W+S53T+D62W | nd nd nd | nd | 0/9
L29H+G55W+R100K | nd nd nd | nd | 0/9
G33H+T58W+D62E | nd nd nd | nd | 1/9 (2.33)
D54E+T104V+S107C | nd nd nd | nd | 2/9 (3.43)
I51P+G61Q | nd nd nd | nd | 1/9 (2.83)
S35P+R100H+T104N | nd nd nd | nd | 1/9 (2.86)
I51T+S53A+G99W | 1.38 2.64 2.35 | 2.12 | 0/9
T28D+R56H+R57F | nd 3.06 nd | 3.06 | 0/9
R100C+A101S+T104V | 3.02 2.23 nd | 2.62 | 0/9
L29Y+D106G | nd nd nd | nd | 0/9
R56Y+T58D+G103Q | nd nd nd | nd | 0/9
F27C+T28D+G61L | 1.81 1.84 1.97 | 1.87 | 1/9 (2.57)
N30L+F59N+G61Y | nd nd nd | nd | 0/9
L29N+Y32N+K65H | nd nd nd | nd | 1/9 (2.92)
I51C+A102T | nd nd nd | nd | 0/9
Y52L+F59L+A101G | nd nd nd | nd | 0/9
S53P+Y60F+G103T | 3.52 nd nd | 3.52 | 0/9
Y52M+G55H+R100H | nd nd nd | nd | 2/9 (3.29)
G26N+L29T+T58I | nd nd nd | nd | 1/9 (3.41)
Y52K+D54I+S107K | nd nd nd | nd | 0/9
G26D+V50N+K65I | nd 3.25 nd | 3.25 | 1/9 (4.99)
F27N+T58W+F59C | nd 5.01 4.49 | 4.75 | 6/9 (4.23)
R57M+S63I+F105M | nd nd nd | nd | 0/9
G26C+Y60S+A102G | nd nd nd | nd | 1/9 (2.64)
T28I+Y32Q+V50E | nd nd nd | nd | 3/9 (4.07)
G26I+L29M+S53A | 1.95 2.07 2.08 | 2.03 | 3/9 (4.38)
G33F+S63M+D106F | nd nd nd | nd | 0/9
N30T+S35C+G61Y | nd nd nd | nd | 0/9
Y52S+R56Y+F105D | nd 2.93 nd | 2.93 | 1/9 (2.67)
G26Q+A101L | 1.61 1.53 1.55 | 1.56 | 0/9
S35E | 6.23 nd nd | 6.23 | 3/9 (4.23)
N30H+R56T+Y60P | 4.55 3.81 4.98 | 4.45 | 7/9 (4.99)
N30R+G33S+D62I | nd nd nd | nd | 1/9 (3.05)
R100A+G103Q+F105Q | nd 2.98 nd | 2.98 | 0/9
Y32R+V50N | nd nd nd | nd | 0/9
G26C+L29F+G99S | 3.76 4.26 4.45 | 4.16 | 5/9 (4.47)
S35M+I51W+A102Y | nd nd nd | nd | 0/9
F27M+L29V | 2.61 3.24 5.49 | 3.78 | 3/9 (4.29)
L29H+V50N+A101H | nd 4.39 nd | 4.39 | 2/9 (2.74)
G55L+Y60Q+G103Q | nd nd nd | nd | 1/9 (4.09)

Excerpt, the final 8 entries:

changes | replicates, log10 nM | log10 Kd (nM), mean | empty controls
N30R+G33S+D62I | nd nd nd | nd | 1/9 (3.05)
R100A+G103Q+F105Q | nd 2.98 nd | 2.98 | 0/9
Y32R+V50N | nd nd nd | nd | 0/9
G26C+L29F+G99S | 3.76 4.26 4.45 | 4.16 | 5/9 (4.47)
S35M+I51W+A102Y | nd nd nd | nd | 0/9
F27M+L29V | 2.61 3.24 5.49 | 3.78 | 3/9 (4.29)
L29H+V50N+A101H | nd 4.39 nd | 4.39 | 2/9 (2.74)
G55L+Y60Q+G103Q | nd nd nd | nd | 1/9 (4.09)